These results are taken from patent US20250326765A1, “PDE4B INHIBITOR AND USE THEREOF” (XIZANG HAISCO PHARMACEUTICAL CO., LTD., priority 2022, published 2025).

Amino acid sequences for entries named in this document (tags omitted). Residues count along the entry.
UniProt Q07343, whole entry: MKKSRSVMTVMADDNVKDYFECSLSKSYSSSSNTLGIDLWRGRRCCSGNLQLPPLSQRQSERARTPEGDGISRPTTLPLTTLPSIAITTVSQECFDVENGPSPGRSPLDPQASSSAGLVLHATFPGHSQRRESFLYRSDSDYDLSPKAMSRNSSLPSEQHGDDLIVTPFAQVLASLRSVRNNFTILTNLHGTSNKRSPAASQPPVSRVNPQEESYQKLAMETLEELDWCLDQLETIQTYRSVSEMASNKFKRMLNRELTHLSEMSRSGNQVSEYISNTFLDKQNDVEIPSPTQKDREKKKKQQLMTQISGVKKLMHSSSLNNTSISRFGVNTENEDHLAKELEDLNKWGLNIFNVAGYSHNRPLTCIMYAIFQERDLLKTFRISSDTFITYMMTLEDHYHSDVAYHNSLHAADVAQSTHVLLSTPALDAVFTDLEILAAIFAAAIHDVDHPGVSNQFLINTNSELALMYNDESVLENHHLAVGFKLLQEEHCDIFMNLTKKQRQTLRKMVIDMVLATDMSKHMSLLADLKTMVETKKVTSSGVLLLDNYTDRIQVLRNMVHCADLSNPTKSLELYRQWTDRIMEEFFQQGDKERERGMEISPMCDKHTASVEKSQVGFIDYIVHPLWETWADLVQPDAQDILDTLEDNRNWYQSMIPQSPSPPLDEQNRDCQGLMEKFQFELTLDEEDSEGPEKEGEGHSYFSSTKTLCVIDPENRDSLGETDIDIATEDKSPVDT
UniProt Q07343, 1-564 isoform 2: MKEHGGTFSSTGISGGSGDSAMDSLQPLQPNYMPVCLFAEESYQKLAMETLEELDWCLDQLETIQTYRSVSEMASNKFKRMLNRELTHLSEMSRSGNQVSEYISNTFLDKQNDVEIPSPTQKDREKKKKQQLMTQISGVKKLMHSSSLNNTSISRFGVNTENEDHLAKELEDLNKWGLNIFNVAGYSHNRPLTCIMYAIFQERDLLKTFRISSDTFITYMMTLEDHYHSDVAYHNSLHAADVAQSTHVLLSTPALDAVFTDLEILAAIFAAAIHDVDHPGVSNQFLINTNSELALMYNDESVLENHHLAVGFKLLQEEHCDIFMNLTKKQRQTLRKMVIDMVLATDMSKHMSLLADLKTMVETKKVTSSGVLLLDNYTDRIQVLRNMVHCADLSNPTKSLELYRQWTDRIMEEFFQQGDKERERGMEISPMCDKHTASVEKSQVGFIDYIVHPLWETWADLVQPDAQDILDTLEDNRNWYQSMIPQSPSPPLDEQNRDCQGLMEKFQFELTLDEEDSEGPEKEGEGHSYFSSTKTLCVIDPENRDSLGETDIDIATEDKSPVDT
UniProt Q08499, 303-809 limits assumed: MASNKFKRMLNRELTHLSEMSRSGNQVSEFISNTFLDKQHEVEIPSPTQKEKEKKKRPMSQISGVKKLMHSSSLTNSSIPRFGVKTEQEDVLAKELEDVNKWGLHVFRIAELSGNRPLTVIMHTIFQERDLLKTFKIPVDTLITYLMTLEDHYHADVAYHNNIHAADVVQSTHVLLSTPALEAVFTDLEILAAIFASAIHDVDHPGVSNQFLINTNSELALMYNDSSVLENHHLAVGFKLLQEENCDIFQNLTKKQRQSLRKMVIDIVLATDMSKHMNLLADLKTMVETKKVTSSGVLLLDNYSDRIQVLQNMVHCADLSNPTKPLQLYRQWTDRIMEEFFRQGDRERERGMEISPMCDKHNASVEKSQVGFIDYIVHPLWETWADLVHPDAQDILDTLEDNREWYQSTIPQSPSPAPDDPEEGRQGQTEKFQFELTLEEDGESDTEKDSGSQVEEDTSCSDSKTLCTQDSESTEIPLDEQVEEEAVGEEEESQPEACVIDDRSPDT

A value given as a limit tells only on which side of the number the result lay.

In one experiment the target is PDE4B1 (Homo sapiens, UniProt Q07343). The experiment is described as follows: Effect of compounds on PDE4B1 activity (IMAP fluorescence polarization kit). The note with it: read-out: PDE4B1 IC50; class symbols. For orientation: Fluorescence polarisation rises when a labelled molecule tumbles more slowly, as on binding a larger partner.
A further experiment concerns the target PDE4D2 (Homo sapiens, UniProt Q08499). The experiment can be described thus: Effect of compounds on PDE4D2 activity (fluorescence polarization kit). Particulars: read-out: PDE4D2 IC50; class symbols. The procedure: The effect of compounds on PDE4D2 activity was detected by a fluorescence polarization kit (BPS Bioscience, Catalog #60345). During the reaction, 12.5 μL of 0.272 ng/well of an enzyme (final concentration: 0.068 ng/well) and 12.5 μL of the compound diluted in a gradient manner (DMSO concentration: 4%) were first pre-incubated at room temperature for 15 minutes, the same volume of the enzyme at the same concentration and 12.5 μL of PDE buffer containing 4% DMSO were added to the positive control well, and 25 μL of PDE buffer containing 2% DMSO was added to the negative control well. After completion, 25 μL of […] FAM-Cyclic-3′,5′-AMP (final concentration: […]) was added to each well, fully mixed, and then incubated at room temperature with slow shaking for 30 minutes. […]
After the incubation was complete, BMG LRBTECH microplate reader was used for FP detection, with Excitation at 485 nm and Emission at 520 nm. […]
[formula] • I∥ (S520): fluorescence intensity in parallel direction • I⊥ (P520): fluorescence intensity in perpendicular direction • G: G factor=1 […]
(§1) According to the calculated inhibition rate at each concentration, the IC50 value of each compound was calculated by GraphPad Prism 8 software.

Another experiment addresses PDE4B2 (Homo sapiens, UniProt Q07343). The experiment is described as follows: Effect of compounds on PDE4B2 activity (fluorescence polarization kit). Particulars: read-out: PDE4B2 IC50; class symbols. The procedure:
The effect of compounds on PDE4B2 activity was detected by a fluorescence polarization kit (BPS Bioscience, Catalog #60343). According to the instructions of the kit, FAM-Cyclic-3′,5′-AMP at a final concentration of […], 1 ng/well of PDE4B2 (PDE buffer was added to the negative control well), and a compound diluted in a gradient manner (PDE buffer containing 10% DMSO was added to the positive control well) were added to each well, fully mixed, and then reacted at room temperature for 1 h. The Binding Agent was diluted with the Binding Agent Diluent (cAMP) at a ratio of 1:100 for later use, the Binding Agent dilution was taken and added to the test plate at 50 μl/well and incubated at room temperature with slow shaking for 20 minutes. After the incubation was complete, Envision was used for FP detection, with Excitation at 480 nm and Emission at 535 nm. FP was usually represented by mP value.
[formula] • I∥ (S535): fluorescence intensity in parallel direction • I⊥ (P535): fluorescence intensity in perpendicular direction • G: G factor=1
[formula] • mP(sample): mP of the test compound in a reaction well • mP(negative control): mP in the negative control well • mP(positive control): mP in the positive control well
as §1

With `[O-][S@+]1CCc2nc(N3CC4C=C(c5ccc(Cl)cc5)CC4C3)nc(NC3(CO)CCC3)c21` (single isomer, unassigned), the IC50 on PDE4B1 and on PDE4D2 was below 10 nM in each case.

Consider `[O-][S@+]1CCc2nc(N3C[C@H]4CC(c5ccc(Cl)cc5)C[C@H]4C3)nc(NC3(CO)CCC3)c21` (single isomer, unassigned), for which the results for the IC50 at PDE4B2 and on PDE4D2 were 10 to 50 nM and below 10 nM, respectively.

What is called IC50 is the concentration needed to halve the response being measured.
